Ab-14 light chain CDR variants: yeast mating affinities

Source: Engelhart et al. 2022 (doi:10.1038/s41597-022-01779-4), MIT Lincoln Laboratory and A-Alpha Bio; data file from the FLAb repository.

Target peptide (SARS-CoV-2 spike, HR2 region): PDVDLGDISGINAS

Ab-14 is the parent antibody, in scFv form: VH, then three GGGGS repeats, then VL. The heavy chain is unchanged in all variants.
VH: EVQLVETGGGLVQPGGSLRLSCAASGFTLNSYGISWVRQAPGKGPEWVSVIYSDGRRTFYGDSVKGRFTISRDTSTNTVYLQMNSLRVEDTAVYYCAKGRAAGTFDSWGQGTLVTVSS
VL: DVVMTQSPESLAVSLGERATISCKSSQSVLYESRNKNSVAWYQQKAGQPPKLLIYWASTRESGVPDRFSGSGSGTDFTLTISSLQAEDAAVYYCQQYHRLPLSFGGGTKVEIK

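The parent was found by panning a naive human phage display library on the peptide. The library (AAYL50) carries one to three amino acid substitutions per variant, with no insertions or deletions. Affinity was read by AlphaSeq, a pooled yeast mating assay with surface-displayed partners. Pairs that bind mate more often; barcode pairs of the diploids are counted by sequencing. A regression on co-assayed BCL2-family reference pairs converts the normalised counts of each replicate to an apparent Kd. There are three technical replicates.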

Substitutions are numbered in sequence along the VL above, starting at 1 (not Kabat).
Every variant below is changed at S103 of the VL (sequential numbering).
Kd is apparent (estimated from mating counts) and averaged on the log scale over replicates with a signal. Smaller is tighter.
A pair that was not seen in any replicate is written "no signal"; this usually means weak binding, but a binder can also be missed.

changes	Kd (apparent)	detected
S58Q/S103G	99 nM	3 of 3
S33V/S62K/S103K	270 nM	2 of 3
S28N/A57H/S103Y	no signal	0 of 3
S38D/A40R/S103W	27 µM	1 of 3
L30D/S103P	no signal	0 of 3
S28C/S33Y/S103R	14 µM	1 of 3
K36P/T59W/S103M	390 nM	3 of 3
E32P/S103Y	12 nM	3 of 3
Q95W/S103Y	no signal	0 of 3
V39R/Y97A/S103A	1.0 µM	1 of 3
S28I/V29C/S103I	no signal	0 of 3
L30A/S103H	22 nM	3 of 3
S28N/N35F/S103Y	44 nM	3 of 3
P101T/L102R/S103I	530 nM	3 of 3
N37E/A57K/S103W	2.2 µM	2 of 3
Q27Y/S58P/S103R	1.2 µM	1 of 3
S26V/P101V/S103C	no signal	0 of 3
Q27R/S38L/S103P	13 µM	2 of 3
R99K/S103C	4.5 µM	3 of 3
R99T/L100H/S103V	76 µM	2 of 3
S25K/P101W/S103A	1.8 µM	1 of 3
K36H/Y97V/S103R	no signal	0 of 3
W56Y/E61I/S103E	no signal	0 of 3
S25D/R99V/S103N	7.8 µM	3 of 3
Y31W/S103T	2.6 µM	1 of 3
Y31S/T59R/S103M	16 nM	3 of 3
W56S/E61C/S103P	750 pM	3 of 3
Y31S/R99G/S103Y	1.1 µM	1 of 3
S25M/S103G	280 nM	1 of 3
K36F/R99A/S103F	21 µM	2 of 3
S33G/N37M/S103Q	no signal	0 of 3
Q27I/R99T/S103F	460 nM	3 of 3
E32W/E61S/S103N	1.3 µM	1 of 3
H98M/L102A/S103G	5.7 nM	3 of 3
V39K/S62M/S103G	19 µM	2 of 3
Y31P/T59I/S103R	no signal	0 of 3
N37F/R60S/S103A	19 nM	3 of 3
R34L/W56N/S103F	2.5 nM	3 of 3
N37C/L102G/S103C	5.9 µM	3 of 3
K36T/Q96E/S103V	170 nM	3 of 3
R34A/H98R/S103H	23 nM	3 of 3
S103W	460 nM	3 of 3
S25E/R60P/S103Q	4.6 µM	3 of 3
S62R/S103C	24 nM	3 of 3
S26G/Y31N/S103Q	29 nM	3 of 3
W56C/S103K	29 nM	3 of 3
N35A/L102H/S103R	35 nM	3 of 3
S25W/S28R/S103W	26 µM	1 of 3
Q96E/S103G	4.4 nM	3 of 3
Q95R/P101L/S103F	24 µM	1 of 3
S38C/R99W/S103W	200 nM	2 of 3
N35G/P101T/S103Q	no signal	0 of 3
K36R/S62M/S103D	13 nM	3 of 3
Q27F/S62W/S103M	69 nM	3 of 3
S26L/S28Y/S103P	6.6 µM	3 of 3
L102R/S103R	9.0 nM	3 of 3
S28T/S62A/S103Q	270 nM	3 of 3
R60T/Q96H/S103C	350 nM	1 of 3
N35C/A40Y/S103C	no signal	0 of 3
N35Y/S103T	250 nM	3 of 3
N35S/P101M/S103V	no signal	0 of 3
K24Y/S25F/S103H	100 nM	3 of 3
N35W/R60V/S103P	46 µM	1 of 3
S28N/K36M/S103E	50 nM	3 of 3
K36W/H98I/S103D	6.0 nM	3 of 3
R34I/T59A/S103H	120 nM	3 of 3
R99F/L102I/S103G	no signal	0 of 3
V29R/S103D	no signal	0 of 3
E32M/S103Q	190 nM	3 of 3
S28W/S103Q	320 nM	2 of 3
N35F/W56V/S103E	17 µM	2 of 3
S38W/V39Q/S103V	no signal	0 of 3
Q95F/R99T/S103P	220 µM	1 of 3
Y97P/P101H/S103D	4.1 nM	3 of 3
Q96F/S103V	16 nM	3 of 3
Q96N/L100R/S103Y	10 µM	2 of 3
K24C/R60C/S103Y	no signal	0 of 3

Excerpt, the final 13 entries:

changes,Kd (apparent),detected
K36W/H98I/S103D,6.0 nM,3 of 3
R34I/T59A/S103H,120 nM,3 of 3
R99F/L102I/S103G,no signal,0 of 3
V29R/S103D,no signal,0 of 3
E32M/S103Q,190 nM,3 of 3
S28W/S103Q,320 nM,2 of 3
N35F/W56V/S103E,17 µM,2 of 3
S38W/V39Q/S103V,no signal,0 of 3
Q95F/R99T/S103P,220 µM,1 of 3
Y97P/P101H/S103D,4.1 nM,3 of 3
Q96F/S103V,16 nM,3 of 3
Q96N/L100R/S103Y,10 µM,2 of 3
K24C/R60C/S103Y,no signal,0 of 3

In this assay the parent's reference entry averaged 4.4 nM; its copy inside this library read 48 nM.
Three control strains display no target. For library AAYL50, 18% of the pairings with them gave a signal, with a median of 15 µM and one signal in twenty below 970 nM, so weak values seen in few replicates may be background.